This passage reports IC50 results from US20090099157A1, “TETRAHYDRO-PYRAZOLO-PYRIDINE THIOETHER MODULATORS OF CATHEPSIN S” (priority 2007, published 2009).

The chains behind the UniProt entries cited, without tags or fusion partners. Residues count along the entry.
UniProt P25774, 115-331: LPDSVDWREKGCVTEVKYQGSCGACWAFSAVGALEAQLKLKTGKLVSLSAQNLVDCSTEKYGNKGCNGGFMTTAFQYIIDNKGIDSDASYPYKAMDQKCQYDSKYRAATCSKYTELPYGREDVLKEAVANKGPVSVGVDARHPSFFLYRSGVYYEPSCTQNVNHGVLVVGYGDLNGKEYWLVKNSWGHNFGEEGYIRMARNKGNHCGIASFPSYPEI

The assay concerns the target Recombinant human cathepsin S (CatS) (Homo sapiens, UniProt P25774). In words: biochemical.

A word on the IC50: it is the point on the concentration scale where inhibition reaches its midpoint. `CS(=O)(=O)N1CCc2c(c(-c3ccc(C(F)(F)F)c(SCCN4CCCC(Cc5ccccc5)C4)c3)nn2CCCN2CCC(N3CCCC3=O)CC2)C1` (stereo not drawn) [Example 878, 1-[1-(3-{5-(Methylsulfonyl)-3-[3-({2-[3-(phenylmethyl)piperidin-1-yl]ethyl}sulfanyl)-4-(trifluoromethyl)phenyl]-4,5,6,7-tetrahydro-1H-pyrazolo[4,3-c]pyridin-1-yl}propyl)piperidin-4-yl]pyrrolidin-2-one]: the half-inhibitory concentration (IC50) turned out to be 150 nM. Take `CS(=O)(=O)N1CCc2c(c(-c3ccc(C(F)(F)F)c(SCCN4CCCC(O)C4)c3)nn2CC(O)CN2CCC(O)(c3ccccn3)CC2)C1` (stereo not drawn) [Example 192, 1-(2-{[5-{1-[2-Hydroxy-3-(4-hydroxy-4-pyridin-2-ylpiperidin-1-yl)propyl]-5-(methylsulfonyl)-4,5,6,7-tetrahydro-1H-pyrazolo[4,3-c]pyridin-3-yl}-2-(trifluoromethyl)phenyl]sulfanyl}ethyl)piperidin-3-ol]: the half-inhibitory concentration (IC50) worked out at 80 nM. With `COc1ccccc1N1CCN(CC(O)Cn2nc(-c3ccc(C(F)(F)F)c(SCCN4CCCCC4)c3)c3c2CCN(S(C)(=O)=O)C3)CC1` (stereo not drawn) [Example 776, 1-{4-[2-(Methyloxy)phenyl]piperazin-1-yl}-3-[5-(methylsulfonyl)-3-{3-[(2-piperidin-1-ylethyl)sulfanyl]-4-(trifluoromethyl)phenyl}-4,5,6,7-tetrahydro-1H-pyrazolo[4,3-c]pyridin-1-yl]propan-2-ol] the figure was 45 nM; with `CS(=O)(=O)N1CCc2c(c(-c3ccc(C(F)(F)F)c(SCCN4CCC(O)CC4)c3)nn2CC(O)CN2CCN(c3ccccc3C#N)CC2)C1` (stereo not drawn) [Example 171, 2-[4-(2-Hydroxy-3-{3-[3-{[2-(4-hydroxypiperidin-1-yl)ethyl]sulfanyl}-4-(trifluoromethyl)phenyl]-5-(methylsulfonyl)-4,5,6,7-tetrahydro-1H-pyrazolo[4,3-c]pyridin-1-yl}propyl)piperazin-1-yl]benzonitrile], 20 nM. With `CS(=O)(=O)N1CCc2c(c(-c3ccc(C(F)(F)F)c(SCCN4CCOCC4)c3)nn2CC(O)CN2CCC(O)(c3ccccn3)CC2)C1` (stereo not drawn) [Example 725, 1-{2-Hydroxy-3-[5-(methylsulfonyl)-3-{3-[(2-morpholin-4-ylethyl)sulfanyl]-4-(trifluoromethyl)phenyl}-4,5,6,7-tetrahydro-1H-pyrazolo[4,3-c]pyridin-1-yl]propyl}-4-pyridin-2-ylpiperidin-4-ol] the figure was 170 nM. For the compound `CC1CCCCN1CCSc1cc(-c2nn(CCCN3CCC(N4CCCC4=O)CC3)c3c2CN(S(C)(=O)=O)CC3)ccc1C(F)(F)F` (stereo not drawn) [Example 18, 1-{1-[3-(5-Methanesulfonyl-3-{3-[2-(2-methyl-piperidin-1-yl)-ethylsulfanyl]-4-trifluoromethyl-phenyl}-4,5,6,7-tetrahydro-pyrazolo[4,3-c]pyridin-1-yl)-propyl]-piperidin-4-yl}-pyrrolidin-2-one], the IC50 was found to be 180 nM. In the case of `COCC(=O)N1CCc2c(c(-c3ccc(C(F)(F)F)c(SCCN4CCOCC4)c3)nn2CC(O)CN2CCCCC2)C1` (stereo not drawn) [Example 335, 1-(5-[(Methyloxy)acetyl]-3-{3-[(2-morpholin-4-ylethyl)sulfanyl]-4-(trifluoromethyl)phenyl}-4,5,6,7-tetrahydro-1H-pyrazolo[4,3-c]pyridin-1-yl)-3-piperidin-1-ylpropan-2-ol] it was 1390 nM. With `CN(C)c1ccc(NC(=O)N2CCc3c(c(-c4ccc(C(F)(F)F)c(SCCN5CCC(F)CC5)c4)nn3C[C@@H](O)CN3CCCCC3)C2)cc1` [Example 763, N-[4-(Dimethylamino)phenyl]-3-[3-{[2-(4-fluoropiperidin-1-yl)ethyl]sulfanyl}-4-(trifluoromethyl)phenyl]-1-[(2S)-2-hydroxy-3-piperidin-1-ylpropyl]-1,4,6,7-tetrahydro-5H-pyrazolo[4,3-c]pyridine-5-carboxamide] the figure was 230 nM; with `CS(=O)(=O)N1CCc2c(c(-c3ccc(C(F)(F)F)c(SCC(=O)NCCc4ccccc4)c3)nn2CC(O)CN2CCC(N3CCCC3=O)CC2)C1` (stereo not drawn) [Example 74, 2-[5-(1-{2-Hydroxy-3-[4-(2-oxo-pyrrolidin-1-yl)-piperidin-1-yl]-propyl}-5-methanesulfonyl-4,5,6,7-tetrahydro-1H-pyrazolo[4,3-c]pyridin-3-yl)-2-trifluoromethyl-phenylsulfanyl]-N-phenethyl-acetamide], 2000 nM; with `CC(=O)N1CCc2c(c(-c3ccc(C(F)(F)F)c(SCC(=O)N4CCOCC4)c3)nn2CC(O)CN2CCC(C(=O)N3CCCC3)CC2)C1` (stereo not drawn) [Example 661, 1-(5-Acetyl-3-{3-[(2-morpholin-4-yl-2-oxoethyl)sulfanyl]-4-(trifluoromethyl)phenyl}-4,5,6,7-tetrahydro-1H-pyrazolo[4,3-c]pyridin-1-yl)-3-[4-(pyrrolidin-1-ylcarbonyl)piperidin-1-yl]propan-2-ol], 110 nM. Consider `CC(F)(F)C1CCN(C[C@H](O)Cn2nc(-c3ccc(C(F)(F)F)c(SCCN4CC[C@H](F)C4)c3)c3c2CCN(S(C)(=O)=O)C3)CC1` [Example 636, (2S)-1-[4-(1,1-Difluoroethyl)piperidin-1-yl]-3-{3-[3-({2-[(3S)-3-fluoropyrrolidin-1-yl]ethyl}sulfanyl)-4-(trifluoromethyl)phenyl]-5-(methylsulfonyl)-4,5,6,7-tetrahydro-1H-pyrazolo[4,3-c]pyridin-1-yl}propan-2-ol], for which the IC50 was found to be 410 nM. For `CS(=O)(=O)N1CCc2c(c(-c3ccc(C(F)(F)F)c(SCCN4CCCC(C(F)(F)F)C4)c3)nn2CCCN2CCC(N3CCCC3=O)CC2)C1` (stereo not drawn) [Example 38, 1-{1-[3-(5-Methanesulfonyl-3-{4-trifluoromethyl-3-[2-(3-trifluoromethyl-piperidin-1-yl)-ethylsulfanyl]-phenyl}-4,5,6,7-tetrahydro-pyrazolo[4,3-c]pyridin-1-yl)-propyl]-piperidin-4-yl}-pyrrolidin-2-one], the IC50 is 280 nM. With `CC1(C)CCN(CC(O)Cn2nc(-c3ccc(C(F)(F)F)c(SCC(=O)N4CCCC4)c3)c3c2CCNC3)CC1` (stereo not drawn) [Example 300, 1-(4,4-Dimethylpiperidin-1-yl)-3-(3-{3-[(2-oxo-2-pyrrolidin-1-ylethyl)sulfanyl]-4-(trifluoromethyl)phenyl}-4,5,6,7-tetrahydro-1H-pyrazolo[4,3-c]pyridin-1-yl)propan-2-ol] the figure was 3150 nM; with `CC(C)(C)OC(=O)N1CCC(CC(=O)N2CCc3c(c(-c4ccc(C(F)(F)F)c(SCCN5CCC(F)CC5)c4)nn3CC(O)CN3CCCCC3)C2)CC1` (stereo not drawn) [Example 886, 1,1-Dimethylethyl 4-(2-{3-[3-{[2-(4-fluoropiperidin-1-yl)ethyl]sulfanyl}-4-(trifluoromethyl)phenyl]-1-(2-hydroxy-3-piperidin-1-ylpropyl)-1,4,6,7-tetrahydro-5H-pyrazolo[4,3-c]pyridin-5-yl}-2-oxoethyl)piperidine-1-carboxylate], 320 nM.

For the compound `CC1CCN(CC(O)Cn2nc(-c3ccc(C(F)(F)F)c(SCCN4CCC(F)(F)C4)c3)c3c2CCN(S(C)(=O)=O)C3)CC1` (stereo not drawn) [Example 501, 1-{3-[3-{[2-(3,3-Difluoropyrrolidin-1-yl)ethyl]sulfanyl}-4-(trifluoromethyl)phenyl]-5-(methylsulfonyl)-4,5,6,7-tetrahydro-1H-pyrazolo[4,3-c]pyridin-1-yl}-3-(4-methylpiperidin-1-yl)propan-2-ol], the IC50 amounted to 150 nM.

As to `CS(=O)(=O)N1CCc2c(c(-c3ccc(C(F)(F)F)c(SCC(=O)N4CCOCC4)c3)nn2CC(O)CN2CCC(C(=O)N3CCCC3)CC2)C1` (stereo not drawn) [Example 262, 1-[5-(Methylsulfonyl)-3-{3-[(2-morpholin-4-yl-2-oxoethyl)sulfanyl]-4-(trifluoromethyl)phenyl}-4,5,6,7-tetrahydro-1H-pyrazolo[4,3-c]pyridin-1-yl]-3-[4-(pyrrolidin-1-ylcarbonyl)piperidin-1-yl]propan-2-ol], the IC50 was determined as 40 nM.

Turning to `CS(=O)(=O)N1CCc2c(c(-c3ccc(C(F)(F)F)c(SCCN4CCC(F)CC4)c3)nn2CC(O)CN2CCC[C@@H](C(=O)O)C2)C1` (stereo partly drawn) [Example 613, (3R)-1-(3-{3-[3-{[2-(4-Fluoropiperidin-1-yl)ethyl]sulfanyl}-4-(trifluoromethyl)phenyl]-5-(methylsulfonyl)-4,5,6,7-tetrahydro-1H-pyrazolo[4,3-c]pyridin-1-yl}-2-hydroxypropyl)piperidine-3-carboxylic acid], the IC50 stood at 320 nM. Regarding `NC(=O)C1CCN(CC(O)Cn2nc(-c3ccc(C(F)(F)F)c(SCCN4CCC(F)(F)C4)c3)c3c2CCNC3)CC1` (stereo not drawn) [Example 327, 1-(3-{3-[3-{[2-(3,3-Difluoropyrrolidin-1-yl)ethyl]sulfanyl}-4-(trifluoromethyl)phenyl]-4,5,6,7-tetrahydro-1H-pyrazolo[4,3-c]pyridin-1-yl}-2-hydroxypropyl)piperidine-4-carboxamide], the IC50 came out at 2480 nM.

For `CS(=O)(=O)N1CCc2c(c(-c3ccc(Cl)c(SCc4ccco4)c3)nn2CCCN2CCOCC2)C1` [Example 131, 3-[4-Chloro-3-(furan-2-ylmethylsulfanyl)-phenyl]-5-methanesulfonyl-1-(3-morpholin-4-yl-propyl)-4,5,6,7-tetrahydro-1H-pyrazolo[4,3-c]pyridine], the IC50 was determined as 1250 nM. With `CS(=O)(=O)N1CCc2c(c(-c3ccc(C(F)(F)F)c(SCCN4CCC(F)CC4)c3)nn2C[C@H](O)CN2CCC(O)(c3ccccn3)CC2)C1` [Example 792, 1-[(2R)-3-{3-[3-{[2-(4-Fluoropiperidin-1-yl)ethyl]sulfanyl}-4-(trifluoromethyl)phenyl]-5-(methylsulfonyl)-4,5,6,7-tetrahydro-1H-pyrazolo[4,3-c]pyridin-1-yl}-2-hydroxypropyl]-4-pyridin-2-ylpiperidin-4-ol], the IC50 is 65 nM.

As to `CN(CCSc1cc(-c2nn(CCCN3CCC(N4CCCC4=O)CC3)c3c2CN(S(C)(=O)=O)CC3)ccc1C(F)(F)F)C1CCCCC1` [Example 27, 1-{1-[3-(3-{3-[2-(Cyclohexyl-methyl-amino)-ethylsulfanyl]-4-trifluoromethyl-phenyl}-5-methanesulfonyl-4,5,6,7-tetrahydro-pyrazolo[4,3-c]pyridin-1-yl)-propyl]-piperidin-4-yl}-pyrrolidin-2-one], the IC50 was 540 nM.
